Test results taken from ChEMBL document CHEMBL1132143, “Effect of A-ring modifications on the DNA-binding behavior and cytotoxicity of pyrrolo[2,1-c][1,4]benzodiazepines” (J Med Chem, 1999).

System: Calf thymus DNA
Assay: Tested for thermal denaturation against CT-DNA at 18 hours
Conditions: Bos taurus

## COc1cc2c(cc1O)N=C[C@@H]1CCCN1C2=O
  ΔTm: 0.7 °C
